Among the data in ChEMBL document CHEMBL2163333, “Novel imidazol-1-ylmethyl substituted 1,2,5,6-tetrahydropyrrolo[3,2,1-ij]quinolin-4-ones as potent and selective CYP11B1 inhibitors for the treatment of Cushing's syndrome” (J Med Chem, 2012) are Ratio IC50 values, retold here.

Structures are written as SMILES.

Assay [1] is filed under the species Homo sapiens. Kind of assay: Selectivity ratio of IC50 for human CYP11B2 to IC50 for human CYP11B1.
Assay [2] is filed under the species Homo sapiens. Kind of assay: Selectivity ratio of IC50 for human placental CYP19 to IC50 for human CYP11B1.
For assay [3], the species on record is Homo sapiens. Description: Selectivity ratio of IC50 for human CYP17 to IC50 for human CYP11B1.

In the case of `O=C1CCc2cc(C(C3CC3)n3ccnc3)cc3c2N1CC3` (racemic), the Ratio IC50 in the assay filed under Homo sapiens [1] amounted to 11; in the assay listed under Homo sapiens [2] it was 104; in the assay filed under Homo sapiens [3] it was 1310.
